PubChem BioAssay AID693 (University of Pittsburgh Molecular Library Screening Center, 2007)
This is a selection; strong and weak results do not stand in their true shares. Some tests of the compounds listed are not included; inactive here does not mean inactive elsewhere. The source made the active and inactive calls. No stated cut-off is given here; in the data, active means inhibition above about 34% (passing the limit was not always enough); inactive means the rest.

Sequences of proteins named here, by UniProt entry; tags and fusion partners are left off.
UniProt P53350, whole entry: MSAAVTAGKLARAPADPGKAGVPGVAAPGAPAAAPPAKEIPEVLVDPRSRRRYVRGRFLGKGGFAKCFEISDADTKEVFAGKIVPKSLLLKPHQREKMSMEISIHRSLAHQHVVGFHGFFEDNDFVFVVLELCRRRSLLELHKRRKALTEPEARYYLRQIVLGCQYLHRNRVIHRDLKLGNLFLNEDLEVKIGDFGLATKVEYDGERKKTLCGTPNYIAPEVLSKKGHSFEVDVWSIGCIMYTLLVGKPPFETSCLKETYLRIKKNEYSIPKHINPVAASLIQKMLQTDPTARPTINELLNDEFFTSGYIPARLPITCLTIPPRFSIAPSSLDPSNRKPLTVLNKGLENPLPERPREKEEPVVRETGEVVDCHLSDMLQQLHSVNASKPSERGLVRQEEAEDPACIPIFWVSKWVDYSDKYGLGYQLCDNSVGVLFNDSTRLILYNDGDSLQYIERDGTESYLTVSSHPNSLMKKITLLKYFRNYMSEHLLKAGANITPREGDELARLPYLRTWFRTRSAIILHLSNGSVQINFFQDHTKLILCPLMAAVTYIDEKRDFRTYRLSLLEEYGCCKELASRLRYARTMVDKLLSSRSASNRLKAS

The molecules below were run against Serine/threonine-protein kinase PLK1 (Homo sapiens) (UniProt P53350) (assay: Plk1 polo box domain binding inhibitors, primary screen, biochemical, fluorescence polarization (AID 693)). Conditions: Plk1 PBD phosphopeptide binding, active compounds read high,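 tested at about 20 µM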.

SMILES | inhibition
CN(C)c1cccc(C(=O)NCC2(N(C)C)CCCCC2)c1 | inactive: -7.01%
O=C(OC1CN2CCC1CC2)C(CO)(c1ccccc1)c1ccccc1 (stereo not drawn) | inactive: 21.1%
CC(C)N1C(=O)CC2(CCN(CCOC(=O)C(O)(c3ccccc3)c3ccccc3)CC2)C1=O | inactive: -5.18%
